Sequences of proteins named here, by UniProt entry; tags and fusion partners are left off.
UniProt Q28044, whole entry: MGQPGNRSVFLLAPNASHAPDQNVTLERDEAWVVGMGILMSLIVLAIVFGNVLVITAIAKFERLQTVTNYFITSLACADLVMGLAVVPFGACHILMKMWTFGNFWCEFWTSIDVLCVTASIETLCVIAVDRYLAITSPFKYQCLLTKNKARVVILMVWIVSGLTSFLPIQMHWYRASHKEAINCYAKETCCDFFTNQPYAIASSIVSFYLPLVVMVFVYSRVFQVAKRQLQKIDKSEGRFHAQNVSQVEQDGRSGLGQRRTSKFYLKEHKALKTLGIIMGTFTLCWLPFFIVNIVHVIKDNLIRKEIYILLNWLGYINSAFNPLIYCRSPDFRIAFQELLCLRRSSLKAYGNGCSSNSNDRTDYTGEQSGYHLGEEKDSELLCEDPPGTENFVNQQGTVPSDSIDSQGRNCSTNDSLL

In ChEMBL document CHEMBL1127515, “The [(methyloxy)imino]methyl moiety as a bioisoster of aryl. A novel class of completely aliphatic beta-adrenergic receptor antagonists” (J Med Chem, 1994):

Molecular target: Beta-2 adrenergic receptor (Bos taurus, UniProt Q28044)
Experiment: Binding affinity against beta-2-adrenergic receptor in bovine lung

Compound `CCCO/N=C/C(O)CNC(C)(C)C` (stereo unspecified) has a Ki of 850 nM.
